Our source for the IC50 values is BindingDB's records for 37276138, “The Zinc-Binding Group Effect: Lessons from Non-Hydroxamic Acid Vorinostat Analogs” (2023).

Amino acid sequences for entries named in this document (tags omitted). A change or cut given only in a name is not applied to a line headed by its entry.
UniProt Q9BY41, whole entry, looked up: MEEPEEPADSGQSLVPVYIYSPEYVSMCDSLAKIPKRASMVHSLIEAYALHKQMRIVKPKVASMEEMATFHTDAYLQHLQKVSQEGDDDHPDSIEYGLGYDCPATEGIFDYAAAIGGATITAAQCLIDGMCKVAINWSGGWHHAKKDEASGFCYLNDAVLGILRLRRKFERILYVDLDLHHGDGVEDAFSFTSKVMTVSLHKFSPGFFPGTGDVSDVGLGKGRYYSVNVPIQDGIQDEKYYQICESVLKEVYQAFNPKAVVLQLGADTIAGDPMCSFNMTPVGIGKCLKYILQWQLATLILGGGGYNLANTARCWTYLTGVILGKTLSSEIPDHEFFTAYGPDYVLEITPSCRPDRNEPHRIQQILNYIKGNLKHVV

In one experiment the target is Histone deacetylase (UniProt O15379+P56524+Q13547+Q8WUI4+Q92769+Q969S8+Q96DB2+Q9BY41+Q9UBN7+Q9UKV0+Q9UQL6).
Another experiment addresses Histone deacetylase 8 (Homo sapiens, UniProt Q9BY41). The experiment is described as follows: ASSAY_NAME: ChEMBL_2346022 DESCRIPTION: Inhibition of human recombinant HDAC8.

pIC50: −log10 of the molar value.

In general, pIC50 refers to the IC50 on a negative log10 scale, so that one unit is a factor of ten. Consider `CP(=O)(O)NCCCCCC(=O)Nc1ccccc1`, for which the negative logarithm of the IC50 (pIC50) is 2.70 against Histone deacetylase and 3.55 on Histone deacetylase 8.
`CP(=O)(O)OCCCCCC(=O)Nc1ccccc1`: the negative logarithm of the IC50 (pIC50) on Histone deacetylase is 2.21; on Histone deacetylase 8, 3.41.
